From US10960005B2, “Treatment of relapsed and/or refractory solid tumors and non-hodgkin's lymphomas” (CELGENE QUANTICEL RESEARCH, INC., priority 2016, dated 2021)

Legend:
Type in all cases: cell-based, human
[1] = tested on: NCI-H146 SCLC cell line; test: Antiproliferative activity, NCI-H146; details: 3D assay; Calcein AM
[2] = tested on: GRP mRNA in NCI-H1417 cells; test: GRP mRNA expression (qRT-PCR), NCI-H1417 cells; details: read-out: IC50±SD down-regulation of GRP mRNA
[3] = tested on: MS-1 hMCC cells; test: hMCC cell proliferation inhibition (2D, CellTiter-Glo), MS-1; details: MS-1, 2D format, 7 days
Description: MKL-1 hMCC cells were cultured in vitro in RPMI-1640 culture medium (Life Technologies, Carlsbad, Calif.) containing 100 units/mL penicdlin G sodium and 100 μg/mL streptomycin sulfate (cRPMI) supplemented with 10% fetal bovine serum (FBS). MS-1 hMCC cells were cultured in vitro in cRPMI supplemented with 20% FBS.
Four to six replicates were performed at each concentration.

COc1ccc(-c2c(-c3ccc(C#N)c(F)c3)nc(N3CCC(N)CC3)n(C)c2=O)cc1F [Compound A]
IC50 [1]: 9.9 µM
IC50 [2]: 8.9 ± 4.6 nM
IC50 [3]: 19.7 nM
